Earlier results on 1 substance are cited in patent US20240245799A1, “PREPARATION METHOD FOR ANTIBODY-DRUG CONJUGATE, AND APPLICATION” (priority 2021, published 2024).

Data set [1] deals with breast cancer with low HER2 expression. Particulars: DS8201-A-J101, breast cancer with low HER2 expression; cited from earlier work.
The subject of data set [2] is breast cancer. Particulars: DESTINY-Breast03; cited from earlier work.
The conditions of data set [3]: in vivo; cited from earlier work.

As for Enhertu, the “confirmed objective response rate (ORRs)” value in data set [1] is given as 37.0%. Besides, the “confirmed objective response rate (ORR)” value in data set [2] was 79.7%. Moreover, the toxic side effects entry in data set [3] is “side effects such as pneumonia and interstitial lung disease”.
